# The list shows a part of the results, in another mix than the full data. The source made the active and inactive calls.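 How the source made its calls: active means inhibition above about 40% at 20 µM (limit read from the data); inactive means the rest.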
# Amino acid sequences for entries named in this document (tags omitted).
# UniProt P35414, whole entry: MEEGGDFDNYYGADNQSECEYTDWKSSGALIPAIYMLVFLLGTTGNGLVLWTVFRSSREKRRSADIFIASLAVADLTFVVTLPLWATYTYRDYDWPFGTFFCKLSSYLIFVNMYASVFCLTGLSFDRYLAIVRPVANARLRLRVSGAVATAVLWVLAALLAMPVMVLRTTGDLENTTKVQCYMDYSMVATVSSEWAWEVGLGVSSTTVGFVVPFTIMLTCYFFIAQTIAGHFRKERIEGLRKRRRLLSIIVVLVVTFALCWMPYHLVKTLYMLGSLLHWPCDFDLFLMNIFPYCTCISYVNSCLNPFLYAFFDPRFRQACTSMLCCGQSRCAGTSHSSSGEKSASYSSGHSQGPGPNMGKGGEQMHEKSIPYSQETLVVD
# Target: Apelin receptor (Homo sapiens) (UniProt P35414)
# Experiment: blockade of apelin-induced APJ beta-arrestin recruitment – CHO-K1 cells, beta-arrestin complementation, luminescence, primary screen (AID 2521);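 further: cells challenged with 10 nM apelin-13 agonist together with compound; plate controls were apelin-13 plus DMSO wells for no effect and DMSO wells lacking apelin-13 for full effect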
# Conditions: at 20 µM, stronger effect = higher value
row,Compound,inhibition
1,CCC(=O)N(c1ccccc1)C1(COC)CCN(CCc2cccs2)CC1,inactive: 18.7%
2,CCC(=O)N(c1ccccc1)C1(COC)CCN(CCn2nnn(CC)c2=O)CC1,inactive: 6.97%
